The target in test [1] is T1, A2AR (Homo sapiens, UniProt P29274). The settings on record: read-out: Radioligand binding Ki A2AR; 10 nM [3H]NECA; ref Lagarias et al.[19]; cited from earlier work.
The target in test [2] is T2, A3R (Homo sapiens, UniProt P0DMS8). The test can be described thus: NECA stimulated cAMP inhibition in A3R Flp-In CHO cells. It is filed as cell-based. Conditions: for effect on NECA potency / antagonism: 1 μM compound; for effect on NECA potency / antagonism / effect on NECA potency: preliminary data; for True Basal: 10 µM compound + 10 µM forskolin only; for Span: 10 µM compound, difference between Emin and basal; for effect on NECA potency: 10 μM compound; for antagonistic potency: functional, Supplementary Fig. 3; for AR subtype selectivity: 10 μM antagonist, NECA curves at A3R, A1R, A2AR, A2BR.

By UniProt entry, the sequences of proteins in these tests, tags left out. Where a name states a change or a piece, a line headed by the entry shows the natural chain unless it says otherwise.
UniProt P0DMS8, whole entry: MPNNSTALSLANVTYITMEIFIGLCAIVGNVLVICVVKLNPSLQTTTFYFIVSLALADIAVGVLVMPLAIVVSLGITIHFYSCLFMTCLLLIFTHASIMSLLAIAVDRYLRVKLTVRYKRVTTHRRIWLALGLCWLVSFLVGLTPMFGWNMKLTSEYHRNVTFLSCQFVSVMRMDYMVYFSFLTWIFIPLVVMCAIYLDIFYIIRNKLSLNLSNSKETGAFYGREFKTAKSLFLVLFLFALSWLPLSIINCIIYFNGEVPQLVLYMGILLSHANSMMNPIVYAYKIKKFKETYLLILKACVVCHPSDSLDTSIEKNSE
UniProt P30542, whole entry: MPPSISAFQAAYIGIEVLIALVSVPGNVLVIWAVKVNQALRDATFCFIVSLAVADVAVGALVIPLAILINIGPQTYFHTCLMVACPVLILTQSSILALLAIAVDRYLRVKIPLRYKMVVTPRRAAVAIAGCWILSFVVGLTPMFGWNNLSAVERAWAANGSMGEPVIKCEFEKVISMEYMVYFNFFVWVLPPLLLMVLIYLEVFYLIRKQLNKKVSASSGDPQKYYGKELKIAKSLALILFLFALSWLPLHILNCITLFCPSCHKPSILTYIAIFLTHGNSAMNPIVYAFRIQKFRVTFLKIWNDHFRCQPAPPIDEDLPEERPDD
UniProt P28647, whole entry: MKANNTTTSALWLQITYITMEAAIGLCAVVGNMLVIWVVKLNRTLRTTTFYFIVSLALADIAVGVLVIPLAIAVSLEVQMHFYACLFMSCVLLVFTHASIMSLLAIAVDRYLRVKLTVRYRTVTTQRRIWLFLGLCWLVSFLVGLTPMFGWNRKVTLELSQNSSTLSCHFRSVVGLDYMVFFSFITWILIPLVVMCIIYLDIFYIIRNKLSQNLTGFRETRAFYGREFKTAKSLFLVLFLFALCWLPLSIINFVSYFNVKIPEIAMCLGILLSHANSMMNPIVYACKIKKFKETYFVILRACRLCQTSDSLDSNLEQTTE

The target of another test is WT A3R (Homo sapiens, UniProt P0DMS8). Put plainly: IB-MECA stimulated cAMP inhibition at WT A3R Flp-In-CHO, with Schild analysis. Type of test: cell-based. The settings on record: for True Basal: 10 µM compound + 10 µM forskolin only; for Span: 10 µM compound, difference between Emin and basal; for mode of antagonism at the A3R by Schild analysis: Schild slope not significantly different from unity.

Test [3] deals with T1, A2AR. The test can be described thus: NECA stimulated cAMP accumulation in CHO-K1 cells expressing A2AR. Type of test: cell-based. The settings on record: 10 μM antagonist.
Test [4] deals with T3, A1R (Homo sapiens, UniProt P30542). Type of test: cell-based. The settings on record: for Basal: upper plateau.
Test [5] deals with T3, A1R. The test can be described thus: Inverse agonism at the A1R (cAMP, forskolin + antagonist only). Conditions: for Inverse agonism pEC50: A1R CHO-K1, 5 μM forskolin + increasing concentrations of compound.
The next test has as its target rat A3R (Rattus norvegicus, UniProt P28647). The test can be described thus: NanoBRET ligand-binding, Nluc-rat A3R HEK 293 cells, AV039 tracer. Conditions: 100 nM AV039, BRET ratio at 5 minutes, Cheng-Prusoff. On the technique in general: BRET reads energy transfer from a luciferase to a nearby fluorophore.
The target of test [6] is T2, A3R. The test can be described thus: Inverse agonism at the A3R (cAMP, forskolin + antagonist only). It is filed as cell-based. Conditions: 10 μM forskolin + increasing concentrations of compound, WT A3R Flp-In-CHO, 3 experiments.
Test [7] deals with T2, A3R. The test can be described thus: Radioligand binding at A3R ([3H]HEMADO, CHO cell membranes). The settings on record: from Table 1.
[8] abbreviates: 0.1 µM compound + forskolin only.
The mark [9] stands for this setting: 10 µM compound + forskolin only.

Like-named read-outs stand apart in the source and are kept apart here.

As usually defined, the Ki is the equilibrium dissociation constant of an inhibitor or competing ligand from its target. For the molecule `Nc1nc(-c2ccncc2)ncc1S(=O)(=O)Cc1ccco1`, the Ki on A2AR [1] is more than 100 µM.

In the case of `NC(=NOC(=O)c1ccccc1-c1ccccc1)c1ccc(Br)cc1`, on A3R [2], the “effect on NECA potency / antagonism” value is recorded as “no effect”, the “True Basal” value was determined as 143.0 ±5.9, the Span was found to be 117.3 ±6.6 and the “effect on NECA potency” value is on record as “reduce the NECA potency”. At A3R [2], this molecule returned an antagonistic potency of more than 1 µM.

As usually defined, the pKi is the Ki on a negative log10 scale, so that one unit is a factor of ten. Regarding `NC(=O)c1sc(-c2ccccc2)cc1NC(=O)c1ccccc1`, the True Basal is 128 ·· at WT A3R; 143.1 ±1.3 at A3R [2]; 110.9 ±4.4 at A1R [4] (setting [8]); 113.6 ±18.1 at A1R [4] (1 µM compound + forskolin only); 141 · at A1R [4] (setting [9]). Besides, the Span at WT A3R was 115.7 ±8.2; on A3R [2], 106.8 ±5.5; at A1R [4] (0.1 µM compound) it was 135.4 ±6.7; on A1R [4] (1 µM compound), 98.6 ±5.6; at A1R [4] (10 µM compound), 154 ···. Further, at WT A3R, the “mode of antagonism at the A3R by Schild analysis” value (from here on “mode of antagonism at the A3R”) is given as “competitive antagonists”. For the same molecule, the inhibition constant Ki at A2AR [1] was 7.29 µM. The “AR subtype selectivity” value at A3R [2] is “antagonists at both the A1R and A3R”. Besides, on A2AR [3], the “antagonism at the A2AR” value was “weak antagonism”. The “mode of antagonism at the A1R by Schild analysis” value on A1R [4] is “competitive antagonists”. The Emin is on record as -5.3 ±9.3 % forskolin response at A1R [4] (0.1 µM compound), -3.7 ±3.8 % forskolin response on A1R [4] (1 µM compound) and 8.1 ±2.0 % forskolin response at A1R [4] (10 µM compound). For the same molecule, the values for the Basal at A1R [4] (0.1 µM compound), on A1R [4] (1 µM compound) and at A1R [4] (10 µM compound) were 130.1 ±2.6, 106.6 ±8.5 and 137 ··, respectively. Besides, at A1R [5], the “inverse agonism at the A1R” value was “inverse agonists”. Further, the “Inverse agonism pEC50” value at A1R [5] was found to be 7.08 ±0.2; on A3R [6], 6.96 ±0.2. The pKi on rat A3R amounted to 5.71 ± 0.03.

Consider `NC(=O)c1sc(-c2ccsc2)cc1NC(=O)/C=C/c1ccsc1`, for which the True Basal on WT A3R was 142 ····; at A3R [2], 129.3 ±4.9; at A1R [4] (setting [8]), 117.6 ±3.2; at A1R [4] (1 µM compound + forskolin only), 120 ·; on A1R [4] (setting [9]), 170 ····. In addition, the Span was 125.1 ±4.9 at WT A3R; 109.2 ±7.3 on A3R [2]; 128.3 ±7.2 at A1R [4] (0.1 µM compound); 150 · at A1R [4] (1 µM compound); 166 ·· on A1R [4] (10 µM compound). Further, on WT A3R, the “mode of antagonism at the A3R” value is recorded as “competitive antagonists”. Moreover, the Ki at A2AR [1] is 4.69 µM. For the same molecule, the “AR subtype selectivity” value at A3R [2] was “antagonists at both the A1R and A3R”. The “antagonism at the A2AR” value on A2AR [3] is recorded as “weak antagonism”. Besides, on A1R [4], the “mode of antagonism at the A1R by Schild analysis” value is reported as “competitive antagonists”. Also, the Emin on A1R [4] (0.1 µM compound) is given as 3.3 ±5.6 % forskolin response; at A1R [4] (1 µM compound) it was 0.1 ±6.3 % forskolin response; at A1R [4] (10 µM compound), 12.2 ±4.7 % forskolin response. The Basal at A1R [4] (0.1 µM compound) was 131.6 ±5.1; at A1R [4] (1 µM compound), 133 ·; at A1R [4] (10 µM compound), 178 ····. Moreover, the “inverse agonism at the A1R” value on A1R [5] is reported as “inverse agonists”. The “Inverse agonism pEC50” value at A1R [5] is listed as 6.99 ±0.2; on A3R [6], 5.83 ±0.2. Besides, the pKi on rat A3R is given as 5.93 ± 0.04.

Consider `NC(=O)c1sc(-c2ccc(Cl)cc2)cc1NC(=O)CSc1cc(C(F)(F)F)cc(C(F)(F)F)c1`, for which the “pKi human A3R” value on A3R [7] is listed as 5.81. Further, on WT A3R, the True Basal is 131 ···, the Span is 119.1 ± 3.5 and the “mode of antagonism at the A3R” value was “competitive antagonists”. For the same molecule, on A2AR [1], the Ki is more than 100 µM. Further, at A3R [2], the “AR subtype selectivity” value is on record as “A3R selective antagonists”, the “True Basal” value was found to be 148.5 ±5.4 and the Span was 136.5 ±2.5. For the same molecule, the pKi on rat A3R amounted to 6.37 ± 0.06. The “Inverse agonism pEC50” value at A3R [6] turned out to be 6.01 ± 0.1.

For `COc1ccc(C(N)=NOC(=O)c2ccccc2-c2ccccc2)cc1OC`, at A3R [2], the “effect on NECA potency / antagonism” value is given as “no effect”, the “True Basal” value was 133.2 ±3.0, the Span stood at 101.4 ±6.2 and the “effect on NECA potency” value is listed as “reduce the NECA potency”.

As to `CCOC(=O)c1cn(C(=O)CCSc2ccc(OC)cc2)nc1N`, the inhibition constant Ki at A2AR [1] is more than 100 µM.

With `NC(=NOC(=O)c1ccccc1-c1ccccc1)c1ccc(Cl)cc1`, on A3R [2], the “effect on NECA potency / antagonism” value is on record as “no effect”, the “True Basal” value is listed as 143.6 ±7.6, the Span was 108.7 ±7.8 and the “effect on NECA potency” value is on record as “reduce the NECA potency”. In addition, the antagonistic potency on A3R [2] is more than 1 µM.

(Values after publication PMC7695835, “Pharmacological characterisation of novel adenosine A3 receptor antagonists” (Scientific Reports, 2020).)
